Patent US10098870B2 (JENKEM TECHNOLOGY CO., LTD. (BEIJING), priority 2013, dated 2018)

What was measured:
[1] = Body weight, survival and tolerance of mice bearing Calu-6 (Example 9);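 also: nude mice bearing Calu-6 tumours, established by implanting 5.0×10^6 cells at the right shoulder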; details: 15 mg/kg i.v. BIW×4W, mean ± SE
[2] = Body weight, survival and tolerance of mice bearing H460 (Example 8); details: 15 mg/kg i.v. BIW×3W, mean ± SE

CC(=O)O[C@H]1C(=O)[C@@]2(C)[C@H]([C@H](OC(=O)c3ccccc3)[C@]3(O)C[C@H](OC(=O)[C@H](O)[C@@H](NC(=O)c4ccccc4)c4ccccc4)C(C)=C1C3(C)C)[C@]1(OC(C)=O)CO[C@@H]1C[C@@H]2O [Paclitaxel, reference compound]
Body weight of animal ([1]; day 14 after inoculation): 20.7 ± 0.2 g | Body weight of animal ([1]; day 42 after inoculation): 20.7 ± 0.4 g | Body weight of animal ([2]; day 26 after inoculation): 18.4 ± 0.3 g | Body weight of animal ([2]; day 29 after inoculation): 18.7 ± 0.4 g
